# Only a part is listed here, and it is no random draw. Inconclusive results are not listed. Entries that show only a call come without a potency. The source made the active and inactive calls. The call rests on the fitted dose curve; in most records, active means well fitted inhibition curve with a large enough effect; inconclusive means small, poorly fitted or top-dose-only effect, or effect the other way, or another doubt; inactive means no such curve, though single readings can be large or run the other way.
# Assay: Nrf2 qHTS screen for inhibitors: counterscreen for cytotoxicity
# Conditions: A549 ARE-Fluc cells, CellTiter-Fluor viability, 18-24 h; series mostly up to 46 µM
# Method in brief: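 A549 ARE_Fluc cells in 5% FBS OPTI-MEM were exposed to compounds in concentration-response for 18-24 h at 37 deg C. Viability was read by CellTiter-Fluor fluorescence (Ex 405/Em 525) after 30 min, before the luciferase read.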
# Potency means the concentration at half of the fitted maximal effect.
row,SMILES,Potency
1,COc1cc(C(=O)NCC2(N3CCOCC3)CCCCC2)ccc1OCC(C)C,inactive
2,CCN(N=Nc1nonc1N)c1nonc1N,inactive
3,Nc1cccc2ccc([As](=O)(O)O)cc12,inactive
4,Cc1cc(SC(NC(=O)c2ccc(F)cc2)C(Cl)(Cl)Cl)ncn1 (stereo unspecified),inactive
5,CCOP(=O)(Nc1ccccc1)OCC,inactive
6,Cc1ccc(NP(=O)(Oc2ccccc2F)Oc2ccccc2F)nc1,inactive
7,CN(C(=O)Cc1ccc(Cl)c(Cl)c1)[C@H]1CCCC[C@@H]1N1CCCC1,inactive
8,CC(=O)Nc1ccc([As](=O)(O)O)cc1,inactive
9,O=C(O)c1ccccc1[As](=O)(O)O,inactive
10,CCCC1OP(N)(=O)OCC1CC (stereo unspecified),inactive
11,CC(=O)O[C@H]1C[C@@H]2OC3C=C(C)CCC3(C)[C@@]1(C)[C@@]21CO1 (stereo partly specified),active: 5.8 µM
12,O=P(Nc1nc2ccc(Cl)cc2s1)(c1ccccc1)c1ccccc1,inactive
13,Nc1cc(N)c2nonc2c1[N+](=O)[O-],inactive
14,CC(C)CC(=O)NC(Sc1ccc(Cl)cc1)C(Cl)(Cl)Cl (stereo unspecified),inactive
15,Oc1ccccc1CNc1ccccn1,inactive
16,O=C(NC(Sc1ccncn1)C(Cl)(Cl)Cl)c1ccccc1 (stereo unspecified),inactive
17,COc1ccccc1OP(=O)(Nc1ccc(C)cn1)Oc1ccccc1OC,inactive
18,Cc1ccc(OP(=O)(Nc2nccs2)Oc2ccc(C)cc2)cc1,inactive
19,CN1CCCC(OC(=O)C(c2ccccc2)c2ccccc2)C1 (stereo unspecified),inactive
20,Clc1ccc(Cl)c(NC2=NCC(CBr)S2)c1 (stereo unspecified),inactive
21,NC(=O)c1cc([N+](=O)[O-])cc([N+](=O)[O-])c1N,inactive

row,SMILES,Potency
1,CN(C(=O)Cc1ccc(Cl)c(Cl)c1)[C@H]1CCCC[C@H]1N1CCCC1,inactive
2,Cc1ccc(N/C(=N/P(=O)(N2CCOCC2)N2CCOCC2)N2CCOCC2)cc1,inactive
3,CC(C)=N/N=C(\N)N[N+](=O)[O-],inactive
4,CN(C)C(=O)OCCc1n(C)cc[n+]1C,inactive
5,CC1CCN(C(=O)Oc2c(Cl)cc(Cl)c3cccnc23)CC1,inactive
6,Nc1ccc([As](=O)(O)c2ccc(N)cc2)cc1,inactive
7,CCN(/C(=N/P(=O)(N1CCOCC1)N1CCOCC1)N1CCOCC1)c1ccc(OC)cc1,inactive
8,CC1=CC2OC3CC4OC(=O)/C=C/C=CC(C(C)O)OCC(O)C(C)CC(=O)OCC2(CC1O)C4(C)C31CO1 (stereo unspecified),active: 0.146 µM
9,O=[N+]([O-])c1cccc2n[nH]nc12,inactive
10,CC(=O)N1C2C3N(C(C)=O)C1C1N(C(C)=O)C(C(N1C(C)=O)N3C(C)=O)N2C(C)=O,inactive
11,Cc1ccc(NP(=O)(Oc2ccccc2)Oc2ccccc2)nc1,inactive
12,CCc1nc2c(n1)c1c(non1O)c1c2no[n+]1[O-],inactive
13,O=[N+]([O-])c1cc([N+](=O)[O-])c(CCNc2ccccc2)c([N+](=O)[O-])c1,inactive
14,COc1ccc(C2=NCC(CBr)S2)cc1 (stereo unspecified),inactive
15,COC(=O)C1(C)COP(=O)(Nc2ccccc2)OC1 (stereo unspecified),inactive
16,O=[N+]([O-])c1cccc(NC2=NCC(CBr)S2)c1 (stereo unspecified),inactive
17,O=C(O)CNc1ccc([As](=O)(O)O)cc1,inactive
18,CC(C)(C)C(=O)NC(Sc1ccncn1)C(Cl)(Cl)Cl (stereo unspecified),inactive
19,O=[N+]([O-])c1ncn(CCn2ncnc2[N+](=O)[O-])n1,inactive
20,O=P(/N=c1/nc(-c2ccccc2)n(-c2ccccc2)s1)(Nc1ccccc1)Nc1ccccc1,inactive
21,O=P1(N(CCCl)CCCl)OCCCS1 (stereo unspecified),inactive

row,SMILES,Potency
1,C(Cc1nn[nH]n1)Cc1nn[nH]n1,inactive
2,Nc1ccc([As](=O)(O)c2ccc([N+](=O)[O-])cc2)cc1,inactive
3,O=C(OC1CN2CCC1CC2)c1cccc(Cl)c1 (stereo unspecified),inactive
4,O=[N+]([O-])c1ccc(O)c(/C=N/Nc2ccc([N+](=O)[O-])cc2[N+](=O)[O-])c1,inactive
5,CC(=O)NC(SC(=S)N(C)C)C(Cl)(Cl)Cl (stereo unspecified),inactive
6,O=[N+]([O-])c1ncn(CCn2cnc([N+](=O)[O-])n2)n1,inactive
7,O=[As](O)(c1ccccc1)c1ccc(O)cc1,inactive
8,O=P(Nc1nc2ccccc2s1)(c1ccccc1)c1ccccc1,inactive
9,C[C@H]1OP(=O)(Oc2ccccc2)[C@H](O)[C@H](O)[C@H]1N=[N+]=[N-] (stereo partly specified),inactive
10,COc1ccc(N)c([N+](=O)[O-])c1[N+](=O)[O-],inactive
11,O=P(Nc1ccccn1)(c1ccc(Br)cc1)c1ccc(Br)cc1,inactive
12,CN(C)C1(CNC(=O)c2ccc(Cl)c(S(N)(=O)=O)c2)CCCCC1,inactive
13,c1nnnn1CCn1cnnn1,inactive
14,CC(C)C(=O)NC(Sc1ccccc1)C(Cl)(Cl)Cl (stereo unspecified),inactive
15,O=P(Nc1nccs1)(c1ccccc1)c1ccccc1,inactive
16,CC(=O)Nc1ccc([As](=O)(O)O)c(O)c1,inactive
17,CC(=O)Nc1ccc(Oc2c([N+](=O)[O-])cc([N+](=O)[O-])cc2[N+](=O)[O-])cc1,inactive
18,CC(=O)c1ccc(N2CC2c2ccncc2)cc1 (stereo unspecified),inactive
19,COC(=O)C1(C)COP(=O)(NCc2ccccc2)OC1 (stereo unspecified),inactive
20,Cc1ccccc1CN(C)C(=O)COC(=O)C(O)(c1ccccc1)c1ccccc1,inactive
21,C[C@H]1OP(=O)(Oc2ccccc2)C[C@@H]2O[C@@H]21 (stereo partly specified),inactive

row,SMILES,Potency
1,C[C@@H]1C=CCP(=O)(Oc2ccccc2)O1 (stereo partly specified),inactive
2,CCc1cc(O)c([N+](=O)[O-])c(C)c1[N+](=O)[O-],inactive
3,CC(C)(C)C(=O)NC(Sc1ccccc1)C(Cl)(Cl)Cl (stereo unspecified),inactive
4,O=P1(Nc2nc3ccc(Cl)cc3s2)COc2ccccc2O1 (stereo unspecified),inactive
5,CCOc1ccc(C2=NCC(CBr)S2)cc1 (stereo unspecified),inactive
6,CC(NC(=O)COC(=O)C(O)(c1ccccc1)c1ccccc1)c1ccccc1 (stereo unspecified),inactive
7,Cc1ccccc1OP(=O)(Nc1ccccn1)Oc1ccccc1C,inactive
8,CN(C)C(=O)Oc1noc2ccccc12,inactive
9,COC(=O)c1cc2c(s1)N=C(c1ccccc1)N(C)P2(=O)N1CCOCC1 (stereo unspecified),inactive
10,CC(=O)NC(SC(=S)N(CC(C)C)CC(C)C)C(Cl)(Cl)Cl (stereo unspecified),inactive
11,Cc1ccc(OP(=O)(Nc2ccccn2)Oc2ccc(C)cc2)cc1,inactive
12,O=C(OC1CN2CCC1CC2)c1ccccc1 (stereo unspecified),inactive
13,CCC(=O)N1C2C3N(C(=O)CC)C1C1N(C(=O)CC)C(C(N1C(=O)CC)N3C(=O)CC)N2C(=O)CC,inactive
14,O=P1(N(CCCl)CCCl)OCCC2CCCCN21 (stereo unspecified),inactive
15,CCNC(=S)/N=C(\N)N[N+](=O)[O-],inactive
16,O=C(NC1CCS(=O)(=O)C1)NP(=S)(Oc1ccccc1)Oc1ccccc1 (stereo unspecified),inactive
17,c1ccc(-c2nn[nH]n2)c(-c2nn[nH]n2)c1,inactive
18,Cc1ccc(NP(=O)(Oc2cccc(C)c2)Oc2cccc(C)c2)nc1,inactive
